# System: KYSE-150 esophageal carcinoma cell line
# Assay: Cell proliferation assay, BrdU incorporation ELISA
# Assay type: cell-based, human
# Conditions: Homo sapiens; KYSE-150, BrdU incorporation after 168 hr compound incubation; read-out: Cellular IC50
row,Compound,IC50
1,"O=C(O)c1ccncc1NC[C@@H]1CCCc2ccccc21 [Example 48, 3-{[(1R)-1,2,3,4-tetrahydronaphthalen-1-yl-methyl]-amino}pyridine-4-carboxylic acid]",> 10 µM
2,"CC1(CNc2cnccc2C(=O)O)CCCc2ccccc21 (stereo not drawn) [Example 49, 3-{[(1-methyl-1,2,3,4-tetrahydronaphthalen-1-yl)methyl]-amino}pyridine-4-carboxylic acid]",> 10 µM
3,"O=C(O)c1ccncc1NCC1CCCc2ccc(F)cc21 (stereo not drawn) [Example 50, 3-{[(7-fluoro-1,2,3,4-tetrahydronaphthalen-1-yl)methyl]amino}pyridine-4-carboxylic acid]",1 to 10 µM
4,"O=C(O)c1ccncc1NCC1=CCCc2ccc(F)cc21 [Example 51, 3-{[(7-fluoro-3,4-dihydronaphthalen-1-yl)methyl]-amino}pyridine-4-carboxylic acid]",> 10 µM
5,"Cc1cc(C)c2c(c1)C(CNc1cnccc1C(=O)O)CCC2 (stereo not drawn) [Example 52, 3-{[(5,7-dimethyl-1,2,3,4-tetrahydronaphthalen-1-yl)-methyl]amino}pyridine-4-carboxylic acid]",0.1 to 1 µM
6,"O=C(O)c1ccncc1NCC1CCCc2ccc(C3CC3)cc21 (stereo not drawn) [Example 53, 3-{[(7-cyclopropyl-1,2,3,4-tetrahydronaphthalen-1-yl)-methyl]amino}pyridine-4-carboxylic acid]",1 to 10 µM
7,"O=C(O)c1ccncc1NCC1CCCc2c(F)cccc21 (stereo not drawn) [Example 54, 3-{[(5-fluoro-1,2,3,4-tetrahydronaphthalen-1-yl)-methyl]amino}pyridine-4-carboxylic acid]",> 10 µM
8,"O=C(O)c1ccncc1NC[C@H]1CCCc2c(F)cccc21 [Example 56, 3-({[(1S)-5-fluoro-1,2,3,4-tetrahydronaphthalen-1-yl]-methyl}amino)pyridine-4-carboxylic acid]",1 to 10 µM
9,"O=C(O)c1ccncc1NC[C@@H]1CCCc2c(F)cccc21 [Example 57, 3-({[(1R)-5-fluoro-1,2,3,4-tetrahydronaphthalen-1-yl]-methyl}amino)pyridine-4-carboxylic acid]",> 10 µM
10,"O=C(O)c1ccncc1NCC1CCOc2ccccc21 (stereo not drawn) [Example 58, 3-[(3,4-dihydro-2H-chromen-4-ylmethyl)amino]pyridine-4-carboxylic acid]",> 10 µM
11,"CC1(C)CCC(CNc2cnccc2C(=O)O)c2ccccc21 (stereo not drawn) [Example 59, 3-{[(4,4-dimethyl-1,2,3,4-tetrahydronaphthalen-1-yl)-methyl]amino}pyridine-4-carboxylic acid]",> 10 µM
12,"COc1ccc2c(c1)CCCC2CNc1cnccc1C(=O)O (stereo not drawn) [Example 60, 3-{[(6-methoxy-1,2,3,4-tetrahydronaphthalen-1-yl)-methyl]amino}pyridine-4-carboxylic acid]",1 to 10 µM
13,"COc1ccc2c(c1)CCC[C@@H]2CNc1cnccc1C(=O)O [Example 61, 3-({[(1S)-6-methoxy-1,2,3,4-tetrahydronaphthalen-1-yl]-methyl}amino)pyridine-4-carboxylic acid]",0.1 to 1 µM
14,"COc1ccc2c(c1)CCC[C@H]2CNc1cnccc1C(=O)O [Example 62, 3-({[(1R)-6-methoxy-1,2,3,4-tetrahydronaphthalen-1-yl]-methyl}amino)pyridine-4-carboxylic acid]",> 10 µM
15,"Cc1ccc2c(c1)C(CNc1cnccc1C(=O)O)CCO2 (stereo not drawn) [Example 63, 3-{[(6-methyl-3,4-dihydro-2H-chromen-4-yl)methyl]-amino}pyridine-4-carboxylic acid]",> 10 µM
16,CC(C)Oc1ccc2c(c1)CCCC2CNc1cnccc1C(=O)O (stereo not drawn) [Example 64],1 to 10 µM
17,"O=C(O)c1ccncc1NCC1CCOc2cc(Cl)ccc21 (stereo not drawn) [Example 66, 3-{[(7-chloro-3,4-dihydro-2H-chromen-4-yl)methyl]-amino}pyridine-4-carboxylic acid]",> 10 µM

row,Compound,IC50
1,"O=C(O)c1ccncc1NCC1CCOc2cc(-c3ccccc3)ccc21 (stereo not drawn) [Example 69, 3-{[(7-phenyl-3,4-dihydro-2H-chromen-4-yl)methyl]-amino}pyridine-4-carboxylic acid]",1 to 10 µM
2,"O=C(O)c1ccncc1NCC1CCCc2ccc(Cl)cc21 (stereo not drawn) [Example 72, 3-{[(7-chloro-1,2,3,4-tetrahydronaphthalen-1-yl)methyl]-amino}pyridine-4-carboxylic acid]",1 to 10 µM
3,"O=C(O)c1ccncc1NCC1CCOc2cc(C3CC3)ccc21 (stereo not drawn) [Example 75, 3-{[(7-cyclopropyl-3,4-dihydro-2H-chromen-4-yl)-methyl]amino}pyridine-4-carboxylic acid]",1 to 10 µM
4,O=C(O)c1ccncc1NCC1CCCc2cc(OCCC(F)(F)F)ccc21 (stereo not drawn) [Example 79],1 to 10 µM
5,O=C(O)c1ccncc1NCC1CCCc2cc(OCC3CC3)ccc21 (stereo not drawn) [Example 81],1 to 10 µM
6,"CN1CCC(CNc2cnccc2C(=O)O)c2ccccc21 (stereo not drawn) [Example 82, 3{[(1-methyl-1,2,3,4-tetrahydroquinolin-4-yl)methyl]-amino}pyridine-4-carboxylic acid]",> 10 µM
7,"O=C(O)c1ccncc1NC[C@H]1CCOc2cc(-c3ccccc3)ccc21 [Example 83, 3-({[(4S)-7-phenyl-3,4-dihydro-2H-chromen-4-yl]-methyl}amino)pyridine-4-carboxylic acid]",0.1 to 1 µM
8,"O=C(O)c1ccncc1NC[C@H]1CCOc2cc(-c3cccc(F)c3)ccc21 [Example 85, 3-({[(4S)-7-(3-fluorophenyl)-3,4-dihydro-2H-chromen-4-yl]-methyl}amino)pyridine-4-carboxylic acid]",0.1 to 1 µM
9,"O=C(O)c1ccncc1NC[C@H]1CCOc2cc(C3CC3)ccc21 [Example 87, 3-({[(4S)-7-cyclopropyl-3,4-dihydro-2H-chromen-4-yl]-methyl}amino) pyridine-4-carboxylic acid]",1 to 10 µM
10,"O=C(O)c1ccncc1NCC1CCCc2cc(OCCc3ccccc3)ccc21 (stereo not drawn) [Example 89, 3-({[6-(2-phenylethoxy)-1,2,3,4-tetrahydronaphthalen-1-yl]methyl}amino)pyridine-4-carboxylic acid]",0.1 to 1 µM
11,"O=C(O)c1ccncc1NCC1CCCc2cc(OCC(F)(F)F)ccc21 (stereo not drawn) [Example 90, 3-({[6-(2,2,2-trifluoroethoxy)-1,2,3,4-tetrahydronaphthalen-1-yl]methyl}amino)pyridine-4-carboxylic acid]",1 to 10 µM
12,"O=C(O)c1ccncc1NCC1CCOc2cc(CCC3CC3)ccc21 (stereo not drawn) [Example 91, 3-({[7-(2-cyclopropylethyl)-3,4-dihydro-2H-chromen-4-yl]-methyl}amino) pyridine-4-carboxylic acid]",0.1 to 1 µM
13,"O=C(O)c1ccncc1NC[C@H]1CCCc2cc(OCCC(F)(F)F)ccc21 [Example 99, 3-({[(1S)-6-(3,3,3-trifluoropropoxy)-1,2,3,4-tetrahydronaphthalen-1-yl]methyl}amino) pyridine-4-carboxylic acid]",1 to 10 µM
14,"COC(=O)c1ccncc1NCc1ccc(C#N)cc1 [Preparation 5A, methyl 3-[(4-cyanobenzyl)amino]pyridine-4-carboxylate]",> 10 µM
15,"COC(=O)c1ccncc1NCc1ccc(C(F)(F)F)cc1 [Preparation 8A, methyl 3-{[4-(trifluoromethyl)benzyl]amino}pyridine-4-carboxylate]",> 10 µM
16,"COC(=O)c1ccncc1NCc1ccc(Cl)cc1 [Preparation 10A, methyl 3-[(4-chlorobenzyl)amino]pyridine-4-carboxylate]",> 10 µM
